Sequences of proteins named here, by UniProt entry; tags and fusion partners are left off. Residues count along the entry.
UniProt P36544, 23-502 limits assumed: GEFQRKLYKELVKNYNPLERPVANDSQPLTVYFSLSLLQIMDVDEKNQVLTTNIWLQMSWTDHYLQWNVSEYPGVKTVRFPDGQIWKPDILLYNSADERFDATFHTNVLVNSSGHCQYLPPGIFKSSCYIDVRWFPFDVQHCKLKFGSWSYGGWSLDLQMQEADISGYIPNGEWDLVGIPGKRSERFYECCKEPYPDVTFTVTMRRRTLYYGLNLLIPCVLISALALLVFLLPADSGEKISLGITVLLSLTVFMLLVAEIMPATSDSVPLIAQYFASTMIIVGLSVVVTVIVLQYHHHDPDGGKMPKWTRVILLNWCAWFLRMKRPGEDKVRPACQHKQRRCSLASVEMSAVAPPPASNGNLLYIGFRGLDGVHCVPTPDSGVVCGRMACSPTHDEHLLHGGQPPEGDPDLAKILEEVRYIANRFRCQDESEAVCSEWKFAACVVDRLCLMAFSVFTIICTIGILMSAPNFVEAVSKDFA

According to US8778974B2, “Trisubstituted 1,2,4 triazoles” (Janssen Pharmaceutica NV, priority 2008, dated 2014):

Target: hα7-wt nAChR-expressing GH4Cl cells (Homo sapiens, UniProt P36544)
Assay: Patch-clamp current recording (whole-cell), potentiation of choline 1 mM response, PAM type
Procedure: The compounds of the present invention are classified as type 1-4, based on qualitative kinetic properties, as determined by whole-cell voltage-clamp recordings. This classification is based on the effect of an α7 PAM compound, as described hereinbefore, on the signal elicited by an agonist application. In particular, said agonist is choline at a concentration of 1 mM. In a preferred experimental setting, said α7 PAM compound and choline are simultaneously applied to the cell, as described hereinafter. Desensitization is defined as the closure of the receptor upon activation during the application of the agonist in whole-cell voltage-clamp electrophysiology measurements seen as the reduction of the […] current after initial activation by the agonist.
The definition of the PAM types 1-4 is described hereinafter: • Type 0 compounds minimally enhance the effect size of the current elicited by 1 mM choline. • Type 1 compounds enhance the effect size of the current elicited by 1 mM choline but minimally alter the kinetics of the receptor. In particular, the rate and the extent of desensitization, elicited by the agonist, is not affected. […]

## Cc1cc(-n2nc(Nc3ccc(F)c(C(F)(F)F)c3)nc2C[C@@H](C)O)ccn1
According to Ex. D.2, "<5" = no top plateau reached at maximal concentration
  Potency (pEC50): 5.73
patch-clamp current recording, 1 mM choline
  Pam type: 2
